1 substance from patent US7183251B1, “hCG therapy for the treatment of breast cancer” (Fox Chase Cancer Center, priority 1998, dated 2007) can be followed below.

For this assay, the system named is estrogen receptor (ER). Kind of assay: r-hCG in primary breast cancer: estrogen receptor immunocytochemistry. The conditions noted are these: positive = greater than 20% of tumoral cells, 2-week r-hCG treatment. The assay is classed as in vivo, human. As for the experimental part: The efficacy of hCG was evaluated by treating with this hormone patients with newly diagnosed primary breast cancer. The efficacy of treatment was assessed by determining whether administration of 10,000 IU hCG on alternate days for 2 weeks to women with newly diagnosed breast cancer will reduce tumor size, inhibit cell proliferation, and modify the percentage of cells expressing estrogen and progesterone receptors. The systemic effect of the hormone was evaluated by determining serum levels of pituitary and ovarian hormones at various times of treatment. R-hCG was used in this study.
Hormonal Treatment: Dose and Schedule. […] The efficacy of treatment was assessed by evaluating in the residual tumor resected by lumpectomy or mastectomy at the end of the two-week r-hCG treatment the same parameters evaluated in the initial core needle biopsies.
Surrogate Marker Analysis. The effects of r-hCG on the breast tumors was evaluated by using immunocytochemistry, performed in both core biopsies of the tumor and in residual tumor present in lumpectomy or mastectomy specimens. The following surrogate markers were evaluated using immunocytochemistry: Rate of cell proliferation, percentage of cells positive for estrogen (ER) and progesterone receptors (PgR) and immunoreactivity for inhibin. […]

For “r-hCG: recombinant human chorionic gonadotropin, glycoprotein hormone composed of two non-covalently linked (α and β) subunits”, the “cases with decrease in ER status from positive NB to negative Exc.B” value was “six”. Besides, the “cases with decrease in ER status from positive NB to negative Exc.B” value (listed as Recombinant hCG) is “six out of nine”.
